The text below walks through data of patent US9018209B2, “Compounds and methods for the treatment of viruses and cancer” (Yale University, priority 2005, dated 2015).

The subject of this data set is MT-2 human T-cells. The data set is described as follows: Cytotoxicity: inhibition of MT-2 cell growth. Type of data set: cell-based. The text has this:
The preparation of the analogues 4a-h involved the reaction between 2-bromothiazole 1 with the corresponding 5-amino-2-R-phenol 2, followed by reaction with 4-bromo-2-methyl-2-butene in presence of Cs2CO3 as a base (Scheme 1; see Table 1 for antiviral activities (EC50) and cytotoxicities (IC50) of these compounds, as determined using human MT-2 cells infected with IIIB strain of HIV-1).
See, Ruiz-Caro, supra. and Lin, et al., Biochem. Pharmacol. 1994, 47, 171-174.

[1] abbreviates: Table 1B, for 50% inhibition of MT-2 cell growth, triplicate samples.

Usually CC50 stands for the concentration at which the toxic effect on the cells reaches its halfway point. In turn, “Ethyl 2-(4-methoxy-3-(3-methylbut-2-enyloxy)phenylamino)thiazole-4-carboxylate [Compound 9c]” yielded a CC50 under setting [1] of 0.5 µM.

As to “Ethyl 2-(4-methyl-3-(3-methylbut-2-enyloxy)phenylamino)thiazole-4-carboxylate [Compound 9b]”, the CC50 turned out to be 9 µM under setting [1] and 9 µM (Table 2b, MT-2 cells).
